Measurements published in patent publication US20250034112A1, “IMPROVED SELECTIVE JAK2 INHIBITORS AND METHODS OF USE” (Yale University, priority 2021, published 2025).

The chains behind the UniProt entries cited, without tags or fusion partners. Residues count along the entry.
UniProt O60674, 536-812 W659A/W777A/F794H: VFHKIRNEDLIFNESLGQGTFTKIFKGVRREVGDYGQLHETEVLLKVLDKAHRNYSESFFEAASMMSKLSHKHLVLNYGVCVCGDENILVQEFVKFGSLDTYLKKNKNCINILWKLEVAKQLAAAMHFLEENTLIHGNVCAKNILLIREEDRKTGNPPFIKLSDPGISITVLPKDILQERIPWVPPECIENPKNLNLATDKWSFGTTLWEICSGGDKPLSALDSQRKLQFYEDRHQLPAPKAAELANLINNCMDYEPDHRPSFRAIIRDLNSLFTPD

Legend:
WT JAK2 JH2 = WT JAK2 JH2 (Homo sapiens (Human), UniProt O60674, F794H/W659A/W777A); experiment: Competitive fluorescence polarization (FP) binding assay, WT JAK2 JH2; conditions: WT JH2 over WT JH1, Table 3
[1] = tested on: STAT5 phosphorylation in HEL cells (JAK2 V617F mutant); experiment: Western blot of STAT5 phosphorylation in HEL cells; format: cell-based, Human; conditions: concentrations up to 75-80 μM after 3-h incubation

Row | Compound | JH2/JH1 Selectivity (WT JAK2 JH2) | Inhibition of phosphorylation of STAT5, HEL cells, up to 75-80 μM [1]
1 | Nc1nc(Nc2ccc(S(N)(=O)=O)cc2)nn1C(=O)Nc1ccc(-c2ccnc(C(=O)O)c2)cc1 [Compound 6, 4-(4-(5-amino-3-((4-sulfamoylphenyl)amino)-1H-1,2,4-triazole-1-carboxamido)phenyl)picolinic acid] | 20x | –
2 | Nc1nc(Nc2ccc(S(N)(=O)=O)cc2)nn1C(=O)Nc1ccc(-c2cc(OCc3ccccc3)cc(C(=O)O)c2)cc1 [Compound 12, 4′-(5-amino-3-((4-sulfamoylphenyl)amino)-1H-1,2,4-triazole-1-carboxamido)-5-(benzyloxy)-[1,1′-biphenyl]-3-carboxylic acid] | 45x | –
3 | CNC(=O)c1ccc(Nc2nc(N)n(C(=O)Nc3ccc(-c4cc(OCc5ccccc5)cc(C(=O)O)c4)cc3)n2)cc1 [Compound 14, 4′-(5-amino-3-((4-(methylcarbamoyl)phenyl)amino)-1H-1,2,4-triazole-1-carboxamido)-5-(benzyloxy)-[1,1′-biphenyl]-3-carboxylic acid] | 134x | –
4 | Nc1nc(Oc2ccc(NC(=O)N[C@@H](CC(=O)c3ccccc3)C(=O)O)cc2)c2cc[nH]c2n1 [Cmpd 21, (S)-2-(3-(4-((2-amino-7H-pyrrolo[2,3-d]pyrimidin-4-yl)oxy)phenyl)ureido)-4-oxo-4-phenylbutanoic acid] | – | no inhibition
